Experimental data from patent US7445897B2, “Sequence variants of multi-drug resistance genes, MDR1 and MRP1, and methods for assessment of drug penetration and disposition” (University of Washington, priority 2004, dated 2008).

Test system: P-gp (MDR11199, G1199A) in recombinant LLC-PK1 cells
Conditions: without GF120918

CC(C)CN(C[C@@H](O)[C@H](Cc1ccccc1)NC(=O)O[C@H]1CCOC1)S(=O)(=O)c1ccc(N)cc1 [amprenavir]
decrease in apical-to-basolateral flux in MDR11199 cells compared to MDR1wt cells: 1.7 fold
